Measured values reported in PubChem BioAssay AID1346378 (National Center for Advancing Translational Sciences (NCATS), 2018).
This is a selection; strong and weak results do not stand in their true shares. Activity calls are given as the source filed them. Rule as the data show it: active = activity change below about -50%; inconclusive = mostly about -30% to -49%; inactive = weaker than that.
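For activity change, negative = inhibition in this document: -100% = wells without enzyme as full effect.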

The chains behind the UniProt entries cited, without tags or fusion partners.
UniProt Q9BTU6, whole entry: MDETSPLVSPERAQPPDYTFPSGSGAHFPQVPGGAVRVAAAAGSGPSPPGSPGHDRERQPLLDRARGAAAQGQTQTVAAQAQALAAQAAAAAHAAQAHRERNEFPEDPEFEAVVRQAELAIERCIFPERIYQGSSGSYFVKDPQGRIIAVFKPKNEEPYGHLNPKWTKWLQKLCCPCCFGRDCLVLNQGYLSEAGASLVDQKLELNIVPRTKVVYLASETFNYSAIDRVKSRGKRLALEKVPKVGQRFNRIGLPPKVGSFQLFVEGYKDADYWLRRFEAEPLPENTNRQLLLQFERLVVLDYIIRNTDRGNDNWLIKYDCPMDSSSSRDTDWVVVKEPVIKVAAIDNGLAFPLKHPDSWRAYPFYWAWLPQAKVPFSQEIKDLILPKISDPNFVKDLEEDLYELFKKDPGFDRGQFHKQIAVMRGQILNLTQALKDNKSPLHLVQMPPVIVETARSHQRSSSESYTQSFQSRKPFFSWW

What follows are molecules tested against Phosphatidylinositol 4-kinase type 2-alpha (Homo sapiens) (UniProt Q9BTU6) (assay: qHTS for small molecular inhibitors of PI4K2A). Settings: purified PI4K2A, ADP-Glo luminescence, 1 h; at 76.9 µM, active compounds read low.
From the text: The phosphatidylinositol 4-phosphate (PI4P) is emerging as a key regulator of lipid transfer in ER-membrane contact sites. The four different phosphatidylinositol 4-kinase (PI4K) enzymes generate PI4P in different membrane compartments supporting distinct cellular processes many of which are crucial for the maintenance of cellular integrity but also hijacked by intracellular pathogens. The goal of this screening project is to search for small molecular inhibitors of PI4K2A based on a high throughput screening strategy.The ADP-Glo assay was used as a starting point to develop a miniaturized version for HTS applications. To implement the HTS screen, the PI4K ADP-Glotrade mark Kinase assay (Promega, V9102) was miniaturized for the 1536-well format used at NCGC.
For the robotic screening, the ADP-Glo assay using the ADP-Glotrade mark Kinase Assay kit from Promega was miniaturized and optimized on 1536-well white solid bottom plates (Greiner Bio-one). The substrate, 1.2 mM PI, prepared in the assay buffer (40mM Tris pH7.5, 20mM MgCl2, 1mM EGTA, 0.4% Triton X-100, 0.5mM DTT, 0.5mg/ml BSA) and PI4K2A enzyme, diluted also in the assay buffer to 4ug/mL, were dispensed onto the plates in equal volumes (1microl/well), pinned with 23 nL/well tested compounds or control followed by dispensation of 1microl/well 300microM ATP. The plates were incubated for one hour. Then, 2 µL/well of ADP-Glo reagent was added and incubated for 40 minutes. Next, 4microL/well of Kinase Detection Buffer was added to the plates and incubated for additional 40 minutes. All incubation steps were performed at ambient temperature. The resulting luminescence signal was measured on Viewlux plate reader (PerkinElmer). Adenosine, a partial non-specific inhibitor, was used as a positive control at 100microM final concentration to assess the assay's quality and plate-to-plate reproducibility. We also used "no enzyme" control to gauge the assay's maximal potential inhibition (IC100).
`CCC(=O)N(c1ccccc1)C1(COC)CCN(CCn2nnn(CC)c2=O)CC1` was tested, and the activity change, negative = inhibition was inactive: -0.883% and the outcome was “inactive”. In the case of `CCC(=O)N(c1ccccc1)C1(COC)CCN(CCc2cccs2)CC1`, the activity change, negative = inhibition is reported as inactive: 1.63% and the outcome is reported as “inactive”. `CN(CCCl)CCCl` was tested, and the activity change, negative = inhibition was inactive: -4.8%.
